Reference: US20260109742A1 (LUMEN BIOSCIENCE, published 2026)
Residue numbers refer to the chain shown, from its start. In names and notes the source's numbering stands.

B1: PP2455 (myctag-S3b-C8-smAKAP_R63E_C70S_C78G-S3b-C8-H6) (bispecific antibody)
chain: MEQKLISEEDLSGGQVQLVESGGGLVQPGGSLRLSCAASGSIENIERMHWYRQAPGKQRELVAVIDSGGTTRYADSVKGRFTISRDNAKNTVYLQMNSLKPEDTAVYYCAAVWLTNAESTQEYWGQGTQVTVSSGGGGSTVILEYAHELSQDILSDALQQWAGGGSGSQVQLVESGGGLVQPGGSLRLSCAASGSIENIERMHWYRQAPGKQRELVAVIDSGGTTRYADSVKGRFTISRDNAKNTVYLQMNSLKPEDTAVYYCAAVWLTNAESTQEYWGQGTQVTVSSHHHHHH
notes: also called R63E mutant
B2: PP2456 (myctag-S3b-C8-smAKAP_R63E_C70S_W76S_C78G-S3b-C8-H6) (bispecific antibody)
chain: B1 chain with W161S
notes: also called pp 2456 (W76S)

Target: PP917 (MBP-5HVZ-S3b-C8-H6)
Test: analytical SEC, 5HVZ dimer with smAKAP clone at 1:2 molar ratio

Binder | binding result
B1 | binds
B2 | binds
